# Laboratory results: PubChem BioAssay AID488919 (Sanford-Burnham Center for Chemical Genomics, 2010)
# The entries are a selection whose mix differs from that of the whole data set. Calls of active or inactive are those of the source.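 Rule for the calls: active = mean inhibition above about 50% when retested at one dose (limit read from the data); inactive = the rest.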
# Assay: Ultra-Glo luciferase signal interference – biochemical, single concentration, SENP8 reaction pre-completed, artefact control for SENP inhibitor project, confirmation (AID 488919);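 note: plate controls were DMSO wells with completed reaction for no effect and substrate without enzyme for full effect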
# Details: Pre-incubated SENP8/Z-RLRGG-aminoluciferin, luciferase luminescence interference; at 12.5 µM; hits give high values
row,Structure (SMILES),inhibition
1,CP(=O)(Nc1ccccn1)Oc1ccc(Cl)cc1 (configuration not stated),inactive: -6.8%
2,CC1=C2N=C(C=C3N=C(C(C)=C4[N-][C@@](C)([C@@H]5N=C1[C@](C)(CCC(=O)NC[C@@H](C)OP(=O)([O-])O[C@H]1[C@@H](O)[C@@H](n6cnc7cc(C)c(C)cc76)O[C@@H]1CO)[C@H]5CC(N)=O)[C@@](C)(CC(N)=O)[C@@H]4CCC(N)=O)[C@@](C)(CC(N)=O)[C@@H]3CCC(N)=O)C(C)(C)[C@@H]2CCC(N)=O.[C-]#N.[Co+3],inactive: -3.5%
